We go through one molecule from PMC8306828, “Ruthenium(II) and Platinum(II) Complexes with Biologically Active Aminoflavone Ligands Exhibit In Vitro Anticancer Activity” (International Journal of Molecular Sciences, 2021).

Sequences of proteins named here, by UniProt entry; tags and fusion partners are left off. A change or cut given only in a name is not applied to a line headed by its entry.
UniProt P11388: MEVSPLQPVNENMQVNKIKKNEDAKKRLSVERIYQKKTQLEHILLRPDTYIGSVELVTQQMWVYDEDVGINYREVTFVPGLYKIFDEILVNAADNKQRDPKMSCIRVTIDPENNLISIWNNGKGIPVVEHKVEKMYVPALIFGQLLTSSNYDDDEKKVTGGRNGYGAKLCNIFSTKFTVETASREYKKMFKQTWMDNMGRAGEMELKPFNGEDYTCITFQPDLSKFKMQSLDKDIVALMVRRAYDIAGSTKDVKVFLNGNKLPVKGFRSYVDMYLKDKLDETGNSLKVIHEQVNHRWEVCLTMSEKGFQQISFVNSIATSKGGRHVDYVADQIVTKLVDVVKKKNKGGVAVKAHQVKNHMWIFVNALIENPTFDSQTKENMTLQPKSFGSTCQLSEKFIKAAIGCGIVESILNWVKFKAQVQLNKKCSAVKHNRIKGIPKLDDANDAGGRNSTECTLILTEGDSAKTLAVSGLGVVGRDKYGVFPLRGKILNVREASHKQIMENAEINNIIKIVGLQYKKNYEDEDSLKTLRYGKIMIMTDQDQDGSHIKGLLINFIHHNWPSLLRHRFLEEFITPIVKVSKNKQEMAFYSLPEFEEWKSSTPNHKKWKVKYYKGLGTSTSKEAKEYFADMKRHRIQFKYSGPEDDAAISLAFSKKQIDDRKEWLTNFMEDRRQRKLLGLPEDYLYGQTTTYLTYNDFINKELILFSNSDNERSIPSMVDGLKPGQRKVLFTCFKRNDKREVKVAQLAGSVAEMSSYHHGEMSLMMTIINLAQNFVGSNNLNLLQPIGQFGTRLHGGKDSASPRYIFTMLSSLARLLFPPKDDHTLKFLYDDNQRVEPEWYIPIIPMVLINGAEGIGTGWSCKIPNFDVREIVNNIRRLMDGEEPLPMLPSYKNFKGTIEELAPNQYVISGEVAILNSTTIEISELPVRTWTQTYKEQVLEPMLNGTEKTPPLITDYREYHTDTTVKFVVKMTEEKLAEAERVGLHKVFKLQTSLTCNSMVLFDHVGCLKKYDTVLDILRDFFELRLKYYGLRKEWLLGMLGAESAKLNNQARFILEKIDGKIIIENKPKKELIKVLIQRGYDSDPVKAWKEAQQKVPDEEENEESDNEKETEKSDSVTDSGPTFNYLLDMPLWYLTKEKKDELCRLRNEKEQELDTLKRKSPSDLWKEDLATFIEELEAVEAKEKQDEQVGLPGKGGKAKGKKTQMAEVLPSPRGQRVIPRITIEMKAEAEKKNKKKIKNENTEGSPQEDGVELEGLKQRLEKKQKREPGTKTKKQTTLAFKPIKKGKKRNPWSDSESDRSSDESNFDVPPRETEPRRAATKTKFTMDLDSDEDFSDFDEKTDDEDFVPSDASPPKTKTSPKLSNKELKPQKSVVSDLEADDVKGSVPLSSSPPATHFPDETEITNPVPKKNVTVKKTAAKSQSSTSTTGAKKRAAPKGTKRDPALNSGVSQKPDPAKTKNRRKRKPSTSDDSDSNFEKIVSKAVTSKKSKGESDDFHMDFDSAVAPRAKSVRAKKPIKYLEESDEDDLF

Molecules are shown by their SMILES.

This assay has as its target T1, human topoisomerase II (Homo sapiens, UniProt P11388).
T1 construct: purchased TopoGen, Buena Vista, CO, USA
Put plainly: Topoisomerase II drug screening (plasmid based), gel electrophoresis. Format: biochemical. The conditions noted are these: scDNA + topo2; tested compounds 10-20 µM, etoposide 100 µM.

`COc1cc([C@@H]2c3cc4c(cc3[C@@H](O[C@@H]3O[C@@H]5CO[C@@H](C)O[C@H]5[C@H](O)[C@H]3O)[C@H]3COC(=O)[C@H]23)OCO4)cc(OC)c1O` [etoposide]: the “inhibition of topoisomerase II / DNA band pattern” value is given as “presence of linear DNA”.
